Measured values from PubChem BioAssay AID540258 (Broad Institute, 2011).

Test system: SK-MEL-5 TRPM1 promoter luciferase reporter, 24 h
Experiment: MITF activators via TRPM1 promoter reporter, dose response, SK-MEL-5 cells, luciferase, cherry-pick samples (AID 540258);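 also: potency for activators that raise TRPM1 promoter luciferase signal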

## Oc1ccc(/C=C/c2cc(O)cc(O)c2)cc1
  AC40: 719 nM
